SMILES strings stand for the structures.

The values below come from ChEMBL document CHEMBL3259543, “Design and synthesis of highly potent HIV-1 protease inhibitors with novel isosorbide-derived P2 ligands” (Bioorg Med Chem Lett, 2014).

The experiment has as its target Protease (Human immunodeficiency virus 1, UniProt Q9YQ12). Briefly: Inhibition of purified HIV-1 protease using [Arg-Glu(EDANS)-Ser-Gin-Asn-Tyr-Ile-Val-Gin-Lys(dabcyl)-Arg) as fluorogenic substrate by fluorescence assay. In a few lines: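 Wild-type HIV-1 protease, cloned, expressed in Escherichia coli and purified. Inhibitors dissolved in DMSO and diluted. Incubation at 30 °C in 0.1 M sodium acetate, 1 M NaCl, 1 mM DTT, 1 mM EDTA, 3% DMSO, pH 5.0, with the EDANS/dabcyl fluorogenic peptide substrate. Cleavage read by fluorescence in a microplate reader.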

On to `CC(C)(C)NC(=O)[C@@H]1CN(Cc2cccnc2)CCN1C[C@@H](O)C[C@@H](Cc1ccccc1)C(=O)N[C@H]1c2ccccc2C[C@H]1O` [INDINAVIR], for which the half-maximal inhibitory concentration (IC50) (as a rule, the concentration at which inhibition is half-maximal) was < 10 nM.
